How the values were obtained:
[1] = molecular target: human A2AR (Homo sapiens, UniProt P29274); test: Radioligand binding assay ([3H]ZM241385 competition) on membranes of HEK-293 cells transfected with human A2AR; details: read-out: Ki hA2AR; [3H]ZM241385 displacement; Ki converted from IC50 by Cheng-Prusoff; duplicate, mean ± SD
[2] = molecular target: recombinant human MAO-B (Homo sapiens, UniProt P27338); test: MAO-B inhibition, MAO-Glo commercial kit; details: read-out: Ki hMAO-B; Ki converted from IC50 by Cheng-Prusoff; duplicate, mean ± SD
Protocol: Inhibitory potency on MAO-B enzyme from recombinant human MAO-B were carried out by a fluorometric method with a commercial kit (Promega, MAO-Glo Assay). The MAO enzyme incubation experiments were carried with a MAO-B substrate, methyl (S)-2-(6-(2-aminoethoxy) benzo[d]thiazol-2-yl)-4,5-dihydrothiazole-4-carboxylate, which was converted to luciferin methyl ester. Then the “Luciferin Detection Reagent” was added to change the methyl ester derivative to luciferin, stop the MAO-B reaction, and simultaneously produce light. The intensity of light is directly in proportion to MAO-B activity. The assay was carried in a 96-well black opaque microplate in duplicate. The reaction mixture was composed of 12.5 μL of MAO-B substrate (a final concentration of 4 μM), 25 μL of human MAO-B (1 μg of protein/well), and 12.5 μL of test compounds for each well. After 1 h of incubation at 37 °C, each well added 50 μL of “Luciferin Detection Reagent”, and incubated an additional 20 min. the luminescent signal of microplate was measured by a luminometer. The signal from reaction of MAO-B enzyme and substrate without inhibitors accounted as the positive control, whereas the signal from reaction of MAO-B enzyme and inhibitors in the absence of substrate accounted as the negative control. Compound concentrations of 1 μM were tested at first. IC50 values (the half maximal inhibitory concentration) were performed from concentration–response curves, plotted by the GraphPad Prism software. All experiments were performed in duplicate, and data are expressed as mean ± SD.

Sequences of proteins named here, by UniProt entry; tags and fusion partners are left off.
UniProt P27338, whole entry: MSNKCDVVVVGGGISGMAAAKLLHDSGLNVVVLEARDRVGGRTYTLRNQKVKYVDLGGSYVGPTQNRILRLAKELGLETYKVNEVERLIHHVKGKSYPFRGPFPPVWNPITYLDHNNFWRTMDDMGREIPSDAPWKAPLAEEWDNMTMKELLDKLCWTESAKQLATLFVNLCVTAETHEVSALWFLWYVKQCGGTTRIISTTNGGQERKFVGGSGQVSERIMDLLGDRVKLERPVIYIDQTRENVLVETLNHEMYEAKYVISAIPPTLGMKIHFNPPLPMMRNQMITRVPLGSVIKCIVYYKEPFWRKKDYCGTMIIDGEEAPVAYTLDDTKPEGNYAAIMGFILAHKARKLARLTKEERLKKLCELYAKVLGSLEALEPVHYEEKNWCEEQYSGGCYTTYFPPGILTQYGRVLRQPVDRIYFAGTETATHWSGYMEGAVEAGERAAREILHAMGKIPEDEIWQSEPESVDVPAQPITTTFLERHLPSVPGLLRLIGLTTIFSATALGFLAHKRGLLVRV

[3] = Plasma pharmacokinetics after i.p. administration; details: rats, 50 mg/kg, n = 6
Description: (§1) Sprague-Dawley rats (200 ± 20 g) were obtained from the Laboratory Animal Center of Wenzhou Medical University (Wenzhou, China) to study the pharmacokinetics and tissue distribution studies (TDS) of PX-D-P6 and PX-E-P8 following intraperitoneal injection (i.p.) administration. The experiment procedures and protocols were approved the Animal Care and Use Committee of Wenzhou Medical College and complied with the Guide for the Care and Use of Laboratory Animals. The corresponding ethical approval code was WMU20161025.
(§2) The chosen compounds dissolved in suspension formulation (2 % Tween 80–saline) were administered to each rat at a dose of 50 mg/kg. Blood samples (0.3 mL) were collected from the caudal vein into 1.5 mL tapered plastic centrifuge tubes (pretreated with K2EDTA as an anticoagulant) at pre-dose, 0.08, 0.16, 0.25, 0.5, 1, 2, 4, 8, 12, 24 h after i.p. administration. Separately, blood and brain samples were collected at pre-dose and 1 h for TDS. Blood samples were immediately centrifuged at 3000 g for 10 min for isolation of the plasma. Brain samples were homogenized in phosphate buffer saline. 100 μL plasma or 200 μL brain sample was precipitated with addition of 400 μL acetonitrile and vortex mixed for 1 min and centrifuged at 10,000 g for 10 min. Finally, 2μL supernatant was injected into UPLC/MS system. Calibration standards samples were prepared with blank rat plasma or brain homogenates. Plasma pharmacokinetic parameters were analyzed by DAS (Drug and Statistics) software (Version 2, Wenzhou Medical University, Wenzhou, China).

[4] = Plasma and brain distribution at 1 h after i.p. administration; details: rats, 1 h after i.p. 50 mg/kg
Description: as §1, §2

[5] = tested on: haloperidol-induced catalepsy in rats; test: Haloperidol-induced catalepsy, bar test; details: i.p.
Protocol: Catalepsy was measured using a thin metal bar test at 9.0 cm height. In this test, each rat was injected intraperitoneally by haloperidol (1.5 mg/kg). Before i.p. administration of vehicle (2% Tween 80–saline), PX-D-P6 and PX-E-P8 (5, 15, 50 mg/kg), at time 0 min, we tested all rats for successful induction of catalepsy. The length of time (descent latency) it persisted in hanging onto the metal bar was measured for a period of up to 300 s (maximum score). After this period, the rat was gently removed from the bar. The high bar test was performed 20 min after the injection of compound. Descent latencies have been presented as median and interquartile ranges. Differences between medians were analyzed by Kruskal-Wallis test, followed by Bonferroni's test.

| SMILES | Ki [1] [nM] | Ki [2] [nM] | further results |
| --- | --- | --- | --- |
| Cn1c(=O)c2[nH]c(-c3cccc(NC(=O)/C=C/c4cccc(Cl)c4)c3)nc2n(C)c1=O | 9580 | > 10000 |  |
| Cn1c(=O)c2[nH]c(-c3ccc(NC(=O)c4ccccc4)cc3)nc2n(C)c1=O | 2310 | 1320 |  |
| Cn1c(=O)c2c(nc(-c3cccc(NC(=O)c4ccccc4)c3)n2C)n(C)c1=O | 2030 | 2260 |  |
| Cn1c(=O)c2[nH]c(-c3ccc(NC(=O)/C=C/c4cccc(C(F)(F)F)c4)cc3)nc2n(C)c1=O | 5180 | 4220 |  |
| Cn1c(=O)c2[nH]c(-c3cccc(NC(=O)/C=C/c4cccc(C(F)(F)F)c4)c3)nc2n(C)c1=O | 7440 | 2630 |  |
| Cn1c(=O)c2[nH]c(-c3ccc(NC(=O)/C=C/c4ccc(F)cc4)cc3)nc2n(C)c1=O | 3410 | 9360 |  |
| Cn1c(=O)c2c(nc(-c3cccc(NC(=O)/C=C/c4cccc(C(F)(F)F)c4)c3)n2C)n(C)c1=O | 7100 | 4760 |  |
| Cn1c(=O)c2c(nc(-c3ccc(NC(=O)/C=C/c4ccccc4)cc3)n2C)n(C)c1=O | 1460 | > 10000 |  |
| COc1ccc(C(=O)Nc2cccc(-c3nc4c(c(=O)n(C)c(=O)n4C)n3C)c2)cc1 | 3050 | 2860 |  |
| COc1ccc(C(=O)Nc2cccc(-c3nc4c([nH]3)c(=O)n(C)c(=O)n4C)c2)cc1 | 3770 | 2570 |  |
| Cc1ccc(C(=O)Nc2ccc(-c3nc4c(c(=O)n(C)c(=O)n4C)n3C)cc2)cc1 | 390 | 1210 |  |
| Cn1c(=O)c2c(nc(-c3cccc(NC(=O)/C=C/c4cccc(Cl)c4)c3)n2C)n(C)c1=O | 9180 | 2930 |  |
| Cn1c(=O)c2c(nc(-c3ccc(NC(=O)c4ccccc4)cc3)n2C)n(C)c1=O |  |  | AUC0→t [3]: 30526.2 ± 1206.7 ng·h/mL; CL [3]: 91.2 ± 20.5 mL/min/kg; Cmax [3]: 2112.6 ± 508.4 ng/mL; Tmax [3]: 0.51 ± 0.15 h; t1/2 [3]: 4.51 ± 0.61 h; B/P Ratio (brain/plasma ratio) [4]: 1.14; Brain concentration ([4]; n = 6): 1289 ± 132 ng/g; Plasma concentration ([4]; n = 6): 1126 ± 207 ng/mL; Anti-catalepsy ability ([5]; 50 mg/kg (high dose)): significant anti-catalepsy ability; Effect on haloperidol-induced catalepsy ([5]; different doses (5, 15 and 50 mg/kg), haloperidol 1.5 mg/kg): significant reduction in catalepsy |
| Cc1ccc(C(=O)Nc2cccc(-c3nc4c(c(=O)n(C)c(=O)n4C)n3C)c2)cc1 | 2780 | 2570 |  |
| Cc1ccc(C(=O)Nc2ccc(-c3nc4c([nH]3)c(=O)n(C)c(=O)n4C)cc2)cc1 | 2870 | 2060 |  |
| COc1ccc(C(=O)Nc2ccc(-c3nc4c([nH]3)c(=O)n(C)c(=O)n4C)cc2)cc1 | 2670 | 2940 |  |
| Cn1c(=O)c2[nH]c(-c3cccc(NC(=O)/C=C/c4ccccc4)c3)nc2n(C)c1=O | 9650 |  |  |
| Cn1c(=O)c2c(nc(-c3cccc(NC(=O)/C=C/c4ccccc4)c3)n2C)n(C)c1=O | 5250 | 3720 |  |
| Cn1c(=O)c2c(nc(-c3ccc(NC(=O)/C=C/c4ccc(F)cc4)cc3)n2C)n(C)c1=O | 790 | 5040 |  |
| Cn1c(=O)c2c(nc(-c3cccc(NC(=O)/C=C/c4ccc(F)cc4)c3)n2C)n(C)c1=O | 7740 | 2580 |  |
| Cn1c(=O)c2[nH]c(-c3cccc(NC(=O)/C=C/c4ccc(F)cc4)c3)nc2n(C)c1=O | 7230 | 2480 |  |
| Cc1ccc(C(=O)Nc2cccc(-c3nc4c([nH]3)c(=O)n(C)c(=O)n4C)c2)cc1 | 4510 | 2170 |  |
| Cn1c(=O)c2[nH]c(-c3ccc(NC(=O)/C=C/c4ccccc4)cc3)nc2n(C)c1=O | 4970 | 8110 |  |
| Cn1c(=O)c2[nH]c(-c3cccc(NC(=O)c4ccccc4)c3)nc2n(C)c1=O | 2910 | 3110 |  |
| Cn1c(=O)c2c(nc(-c3ccc(NC(=O)/C=C/c4cccc(C(F)(F)F)c4)cc3)n2C)n(C)c1=O | 1980 | > 10000 |  |
| COc1ccc(C(=O)Nc2ccc(-c3nc4c(c(=O)n(C)c(=O)n4C)n3C)cc2)cc1 | 1190 | 470 |  |
